## Binding of CDR-mutated scFvs to a peptide of the spike HR2 region

Data: MIT Lincoln Laboratory AlphaSeq set, Engelhart et al. 2022, doi:10.1038/s41597-022-01779-4, as distributed in FLAb.

Target peptide (SARS-CoV-2 spike, HR2 region): PDVDLGDISGINAS

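The library (AAYL50) carries one to three amino acid substitutions per variant, with no insertions or deletions. AlphaSeq pools MATa yeast showing the antibodies with MATalpha yeast showing the peptide. After mating in shaken culture at 30 °C for 16 h, diploids were selected and their barcode pairs sequenced. Read counts were normalised to the haploid input and turned into Kd by a linear fit to BCL2-family pairs of known affinity, for each replicate. Mating was done three times.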

The variants keep the heavy chain, the linker and the frameworks of Ab-14 (scFv order VH, three GGGGS repeats, VL).
VH: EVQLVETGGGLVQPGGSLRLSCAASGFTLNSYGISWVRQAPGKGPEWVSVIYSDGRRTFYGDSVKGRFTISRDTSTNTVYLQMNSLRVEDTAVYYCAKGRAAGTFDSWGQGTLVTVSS
VL: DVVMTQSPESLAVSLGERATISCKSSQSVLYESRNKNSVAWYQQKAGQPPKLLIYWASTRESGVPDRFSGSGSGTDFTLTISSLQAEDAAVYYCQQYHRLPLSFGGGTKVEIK

The parent's light chain CDRs are KSSQSVLYESRNKNSVA, WASTRES, QQYHRLPLS; each variant's own CDRs replace them letter for letter.
This list gathers variants with a substitution at V39 (VL, numbered from residue 1).
Each Kd is an estimate from the mating assay, the geometric mean of the replicates in which the pair was seen; lower is stronger.
Where no diploid with the target was found in any replicate, the entry reads "no signal": below detection, most likely a poor binder, though not proof of it.
Three control strains display no target. For library AAYL50, 18% of the pairings with them gave a signal, with a median of 15 µM and one signal in twenty below 970 nM, so weak values seen in few replicates may be background.

| CDR-L1 | CDR-L2 | CDR-L3 | Kd (apparent) | detected |
|---|---|---|---|---|
| KSNQSVLYESRNKNSIA | WASTRES | QQYHRDPLS | 1.3 nM | 3 of 3 |
| KSSQSVLYESMNKNSAA | WCSTRES | QQYHRLPLS | no signal | 0 of 3 |
| KSSQSVLYETRNKNSDA | WASTREG | QQYHRLPLS | 280 µM | 1 of 3 |
| KSCQTVLYESRNKNSDA | WASTRES | QQYHRLPLS | 80 µM | 2 of 3 |
| KSSQSVLYESRNKNSCA | WARTRES | QQYHRLPLS | no signal | 0 of 3 |
| KSSQSVLYESRNKNSPA | WESTRES | QQYHRLPLF | 4.5 µM | 2 of 3 |
| KSSQSVLYESRNKNSEA | WASTEES | QPYHRLPLS | 26 µM | 1 of 3 |
| KSSQSVLYESRNLNSMA | WASTRES | QQYHRHPLS | no signal | 0 of 3 |
| KSSQSVLYESRNKNSDA | WWSTRES | QQYHKLPLS | 18 µM | 1 of 3 |
| KSSQSVLYESRNKNEQA | WASTRES | QQYHSLPLS | 3.3 µM | 2 of 3 |
| KSSQSVLYESRNKNSCA | NASTRES | QQYHRGPLS | 6.8 µM | 1 of 3 |
| KSSQSVIYESRNKNSQA | WASTRES | QSYHRLPLS | 280 nM | 3 of 3 |
| KSSQSVLYESRNKNSYA | WASTRES | QQYHRSPLQ | no signal | 0 of 3 |
| KSSQSVLYESANKNSTA | WASTRER | QQYHRLPLS | 630 nM | 3 of 3 |
| KSSQSVLYESRNKNSGA | WASTRES | AQYHRLPLN | no signal | 0 of 3 |
| KSSQSVLWESRNKNSYA | WASTRES | QQYHRLPLS | 12 µM | 1 of 3 |
| KSSYSVLYESRNKNSWA | WASTEES | QQYHRLPLS | 2.0 µM | 1 of 3 |
| KSSQSVPYESRNKNSTA | WASTRES | QQYHFLPLS | 9.9 µM | 2 of 3 |
| KSSQSVLYESRNKNSFA | WAQTRES | TQYHRLPLS | no signal | 0 of 3 |
| KSSQSVLYESIWKNSLA | WASTRES | QQYHRLPLS | 120 nM | 3 of 3 |
| KSSQSVCYDSRNKNSKA | WASTRES | QQYHRLPLS | no signal | 0 of 3 |
| LSSQSVRYESRNKNSRA | WASTRES | QQYHRLPLS | no signal | 0 of 3 |
| KSSQSVLYGSRNKNSGA | WASTRES | QQYHRLPMS | 490 µM | 1 of 3 |
| KSSQSVLYESRNKNSAA | WNSTRES | QQYQRLPLS | no signal | 0 of 3 |
| KSSQSVNYEPRNKNSPA | WASTRES | QQYHRLPLS | no signal | 0 of 3 |
| KSSQSVLYMSRNKNSGA | WASTRWS | QQYHRLPLS | no signal | 0 of 3 |
| KSSQSVLYESRNKNSCA | WASTRES | QNYHRIPLS | 200 µM | 1 of 3 |
| KSSQEVLYESRNVNSMA | WASTRES | QQYHRLPLS | 390 nM | 3 of 3 |
| KRSQSVLYESRNKNSMA | WASFRES | QQYHRLPLS | 14 µM | 2 of 3 |
| KSSQSVLYESRNKNSAA | WESTFES | QQYHRLPLS | no signal | 0 of 3 |
| KSSQSVLYESRNKNSAA | WVSTRES | QQYHRLPLS | no signal | 0 of 3 |
| KSSQSVLKESRNKNSPA | WASTRES | QQFHRLPLS | 14 µM | 3 of 3 |
| KSSQSVLYEKRDKNSFA | WASTRES | QQYHRLPLS | 32 µM | 1 of 3 |
| KSSQSVLYESRVKNSKA | WASTRES | QQYYRLPLS | no signal | 0 of 3 |
| KSSQSVLYESRNKNSEC | WASTMES | QQYHRLPLS | 19 µM | 2 of 3 |
| KSSQSVLYESRQKNSNM | WASTRES | QQYHRLPLS | 800 µM | 1 of 3 |
| KSSQSVLYESENKNSTA | WASTRES | QQYHRLPLS | 180 µM | 2 of 3 |
| KSSKSVLYESRNKNSLA | WVSTRES | QQYHRLPLS | 6.1 µM | 1 of 3 |
| KSSQSVLYESRNKNSNA | WASGRES | QQYHRLPLS | 24 µM | 1 of 3 |
| KSSQSVLYFSRNKNSEA | WASTRES | QQYHRLPLM | 11 µM | 3 of 3 |
| KSSQSYLYESRNKSSMA | WASTRES | QQYHRLPLS | 300 nM | 3 of 3 |
| KSSQSVLYECRNKNSWP | WASTRES | QQYHRLPLS | no signal | 0 of 3 |
| KSSQSVLYESRNKNSCA | WVSTFES | QQYHRLPLS | no signal | 0 of 3 |
| KSSQSVLYESRNKNSDA | WASTREE | QQYHRLPLS | 3.5 µM | 2 of 3 |
| KSSQSVLPESRNKNSPA | WASTREV | QQYHRLPLS | 37 µM | 1 of 3 |
| KSSQSVLYESRNKGSWA | FASTRES | QQYHRLPLS | no signal | 0 of 3 |
| KSSQSVLYDSKNKNSRA | WASTRES | QQYHRLPLS | 7.0 µM | 1 of 3 |
| KSSQSVLYESRNKNSPA | WASTRDS | QQEHRLPLS | 15 µM | 3 of 3 |
| KSSQSVLYESRNKNSDA | WGSTRES | MQYHRLPLS | no signal | 0 of 3 |
| KSSQSVLYESRNKNSGA | WASTRNS | QQYHRLPLS | no signal | 0 of 3 |
| KSSQSVLYESRNVNSCA | WASTRES | QQYHRLPSS | no signal | 0 of 3 |
| KSSNSVLYESRNKNSPA | WMSTRES | QQYHRLPLS | 2.3 mM | 1 of 3 |
| KSSQSVLYESRNANSEA | WASTRES | QTYHRLPLS | no signal | 0 of 3 |
| KSSQSVLYESRNKGSGA | WASTRES | QQYHRLQLS | no signal | 0 of 3 |
| KSSQSVLYESGNKNSAA | WASTRES | QQYHRLNLS | 37 µM | 1 of 3 |
| KSSQSVLYESRNKNSHA | WASTRES | QQYHRLYVS | no signal | 0 of 3 |
| KSSQSVLYESRNKNSTA | WASTRES | QQYHRLPAW | 37 µM | 2 of 3 |
| KSSQSVLYESRPKNSLA | WASTREM | QQYHRLPLS | 390 nM | 2 of 3 |
| KSSQSVMYESRNKNDHA | WASTRES | QQYHRLPLS | 18 µM | 1 of 3 |
| KSSQSVLYESRNKNSTA | WASTRIS | QQTHRLPLS | 25 µM | 3 of 3 |
| KSSQSVLYTSRNKNSAR | WASTRES | QQYHRLPLS | no signal | 0 of 3 |
| KSSQSVLYESRNKNSCA | WASTREC | QQYHRMPLS | 3.0 µM | 2 of 3 |
| KSSQSVLYESRLKNSRA | WASTRES | QQYHRRPLS | no signal | 0 of 3 |
| KSSQSVLYPSRSKNSFA | WASTRES | QQYHRLPLS | 7.1 µM | 1 of 3 |
| KSSQSVLYESQNGNSDA | WASTRES | QQYHRLPLS | no signal | 0 of 3 |
| KSSQSVLYESRNKNSFA | WWKTRES | QQYHRLPLS | 7.5 µM | 2 of 3 |
| KSSQSVLYESRNENSMA | WASTRES | QCYHRLPLS | 260 nM | 1 of 3 |
| KSSQSVLYESRHKNSGA | WASTRES | QQYHRLPLK | no signal | 0 of 3 |
| KSSQSVLYESGNKNSMA | WASTRES | QQYHRLPLF | 37 nM | 3 of 3 |

Repeated from above, the 6 best binders with a signal in all replicates:

{"CDR-L1": "KSNQSVLYESRNKNSIA", "CDR-L2": "WASTRES", "CDR-L3": "QQYHRDPLS", "Kd (apparent)": "1.3 nM", "detected": "3 of 3"}
{"CDR-L1": "KSSQSVLYESGNKNSMA", "CDR-L2": "WASTRES", "CDR-L3": "QQYHRLPLF", "Kd (apparent)": "37 nM", "detected": "3 of 3"}
{"CDR-L1": "KSSQSVLYESIWKNSLA", "CDR-L2": "WASTRES", "CDR-L3": "QQYHRLPLS", "Kd (apparent)": "120 nM", "detected": "3 of 3"}
{"CDR-L1": "KSSQSVIYESRNKNSQA", "CDR-L2": "WASTRES", "CDR-L3": "QSYHRLPLS", "Kd (apparent)": "280 nM", "detected": "3 of 3"}
{"CDR-L1": "KSSQSYLYESRNKSSMA", "CDR-L2": "WASTRES", "CDR-L3": "QQYHRLPLS", "Kd (apparent)": "300 nM", "detected": "3 of 3"}
{"CDR-L1": "KSSQEVLYESRNVNSMA", "CDR-L2": "WASTRES", "CDR-L3": "QQYHRLPLS", "Kd (apparent)": "390 nM", "detected": "3 of 3"}